{"source": "paper PMC12333026", "about": "“Versatile Imidazole Scaffold with Potent Activity against Multiple Apicomplexan Parasites” (ACS Infectious Diseases, 2025)", "target": "T1, TgCDPK1 WT (Toxoplasma gondii, UniProt Q9BJF5)", "T1 sequence (Q9BJF5 1-507)": "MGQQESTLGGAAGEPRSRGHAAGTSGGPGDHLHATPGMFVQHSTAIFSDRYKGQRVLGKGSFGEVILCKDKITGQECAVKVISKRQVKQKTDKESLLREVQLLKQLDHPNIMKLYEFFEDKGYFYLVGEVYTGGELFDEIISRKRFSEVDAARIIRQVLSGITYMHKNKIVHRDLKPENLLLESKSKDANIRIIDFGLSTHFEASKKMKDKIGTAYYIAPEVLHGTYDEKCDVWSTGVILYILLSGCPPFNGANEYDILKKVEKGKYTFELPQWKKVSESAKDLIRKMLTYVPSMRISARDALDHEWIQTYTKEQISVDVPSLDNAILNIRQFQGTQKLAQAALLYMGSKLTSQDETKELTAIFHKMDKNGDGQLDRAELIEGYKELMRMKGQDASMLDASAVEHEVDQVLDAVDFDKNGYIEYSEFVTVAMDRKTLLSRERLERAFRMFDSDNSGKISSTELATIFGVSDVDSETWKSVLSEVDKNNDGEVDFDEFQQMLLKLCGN", "conditions": "TgCDPK1 versus PfCDPK4; 90 min", "experimental": "Recombinant expression of PfCDPK1, PfCDPK4, TgCDPK1 WT, TgCDPK1-G128M, CpCDPK1 and CpCDPK1-G152 M were purified as previously described. […] These reactions were performed in a buffer composed of 1 mM EGTA (pH 7.2), 10 mM MgCl2, 20 mM HEPES pH 7.5 (KOH), 0.1% BSA. The reactions were initiated with addition of 10 μM ATP and 2 mM CaCl2 as enzyme activation reagent. Reaction plates were incubated for 90 min with 90 rpm agitation at 30 °C. […] KinaseGlo (Promega) luminescence-based assay in which luminescence is inversely related to kinase activity and […] was used as previously described."}
{"smiles": "O=C(c1nccs1)N1CC[C@@H](Nc2nccc(-n3cc(C4CC4)nc3-c3cccc(Cl)c3)n2)C1", "note": "[(R)-RY-1-185]", "values": [{"measurement": "IC50 for TgCDPK1 lower than for PfCDPK4", "result": "over 30 fold"}]}
